Publication PMC4301998 (Bioorganic & medicinal chemistry, 2014)

Tested on: HepG2 cells
Conditions: RIF, concentration not given, 24 hr, CellTiter-Glo

CO[C@H]1/C=C/O[C@@]2(C)Oc3c(C)c(O)c4c(O)c(c(/C=N/N5CCN(C)CC5)c(O)c4c3C2=O)NC(=O)/C(C)=C\C=C\[C@H](C)[C@H](O)[C@@H](C)[C@@H](O)[C@@H](C)[C@H](OC(C)=O)[C@@H]1C [rifampicin, reference compound]
HepG2 cell viability (cytotoxicity): marginally cytotoxic
